In patent US20230158141A1:

Target: TNFα (UniProt P01375)
Assay: ELISA, conjugate vs WT antibody

binding activity (% of WT) [%] | Substance
95.1 | anti-TNFα antibody heavy chain A33C-R4-1 (antibody; other documents disagree on this pair)
95.7 | anti-TNFα antibody heavy chain A61C-R4-1 (antibody; other documents disagree on this pair)
86.5 | anti-TNFα antibody heavy chain A105C-R4-1 (antibody; other documents disagree on this pair)
88.7 | anti-TNFα antibody heavy chain G56C-R4-1 (antibody; other documents disagree on this pair)
99.4 | anti-TNFα antibody heavy chain G66C-R4-1 (antibody; other documents disagree on this pair)
103 | anti-TNFα antibody heavy chain I51C-R4-3 (antibody; other documents disagree on this pair)
86.7 | anti-TNFα antibody heavy chain I58C-R4-3 (antibody; other documents disagree on this pair)
85.5 | anti-TNFα antibody heavy chain L102C-R4-3 (antibody; other documents disagree on this pair)
81.4 | anti-TNFα antibody heavy chain L108C-R4-3 (antibody; other documents disagree on this pair)
86.9 | anti-TNFα antibody heavy chain S55C-R4-1 (antibody; other documents disagree on this pair)
96.8 | anti-TNFα antibody heavy chain S63C-R4-1 (antibody; other documents disagree on this pair)
92.2 | anti-TNFα antibody heavy chain S100C-R4-1 (antibody; other documents disagree on this pair)
84.5 | anti-TNFα antibody heavy chain S103C-R4-1 (antibody; other documents disagree on this pair)
98.3 | anti-TNFα antibody heavy chain S106C-R4-1 (antibody; other documents disagree on this pair)
87.4 | anti-TNFα antibody heavy chain S107C-R4-1 (antibody; other documents disagree on this pair)
82.8 | anti-TNFα antibody heavy chain T52C-R4-1 (antibody; other documents disagree on this pair)
97.3 | anti-TNFα antibody heavy chain T104C-R4-1 (antibody; other documents disagree on this pair)
88.6 | anti-TNFα antibody heavy chain Y32C-R4-4 (antibody; other documents disagree on this pair)
85.2 | anti-TNFα antibody heavy chain Y60C-R4-4 (antibody; other documents disagree on this pair)
85.4 | anti-TNFα antibody heavy chain Y101C-R4-4 (antibody; other documents disagree on this pair)

binding activity (% of WT) [%] | Substance
82.5 | anti-TNFα antibody heavy chain Y110C-R4-4 (antibody; other documents disagree on this pair)
88.6 | anti-TNFα antibody light chain A25C-R4-1 (antibody; other documents disagree on this pair)
85.7 | anti-TNFα antibody light chain A34C-R4-1 (antibody; other documents disagree on this pair)
85.5 | anti-TNFα antibody light chain A50C-R4-1 (antibody; other documents disagree on this pair)
95.1 | anti-TNFα antibody light chain A51C-R4-1 (antibody; other documents disagree on this pair)
97.5 | anti-TNFα antibody light chain A94C-R4-1 (antibody; other documents disagree on this pair)
92.3 | anti-TNFα antibody light chain G28C-R4-1 (antibody; other documents disagree on this pair)
95.5 | anti-TNFα antibody light chain G57C-R4-1 (antibody; other documents disagree on this pair)
87.8 | anti-TNFα antibody light chain I29C-R4-3 (antibody; other documents disagree on this pair)
89.4 | anti-TNFα antibody light chain L33C-R4-3 (antibody; other documents disagree on this pair)
82.2 | anti-TNFα antibody light chain L54C-R4-3 (antibody; other documents disagree on this pair)
97.1 | anti-TNFα antibody light chain S26C-R4-1 (antibody; other documents disagree on this pair)
86.8 | anti-TNFα antibody light chain S52C-R4-1 (antibody; other documents disagree on this pair)
95.4 | anti-TNFα antibody light chain S56C-R4-1 (antibody; other documents disagree on this pair)
89.4 | anti-TNFα antibody light chain T53C-R4-1 (antibody; other documents disagree on this pair)
82.5 | anti-TNFα antibody light chain T97C-R4-1 (antibody; other documents disagree on this pair)
89.1 | anti-TNFα antibody light chain Y32C-R4-4 (antibody; other documents disagree on this pair)
34.5 | anti-TNFα antibody light chain Y91C-R4-1 (antibody; other documents disagree on this pair)
90.1 | anti-TNFα antibody light chain Y91C-R4-4 (antibody; other documents disagree on this pair)

Target: TNFa protein (Sino Biological) (UniProt P01375)
Assay: ELISA, EC50 fold change; S47 on the Cys

Blocking efficiency of S47 [fold] | Substance
11 | Ada-se001 (Adalimumab heavy chain Tyr32Cys) (antibody)
7 | Ada-se002 (Adalimumab heavy chain Asp59Cys) (antibody)

Target: TNFa protein (Sino Biological) (UniProt P01375)
Assay: ELISA; R4-7 on the Cys

Binding activity (% of WT antibody) | Substance
78.4 | Adalimumab Gln3Cys (VH) (antibody)
78.4 | Adalimumab Glu46Cys (VH) (antibody)
87.4 | Adalimumab Ser7Cys (VH) (antibody)
68.4 | Adalimumab Ser26Cys (VH) (antibody)
97.4 | Adalimumab Thr5Cys (VL) (antibody; other documents disagree on this pair)
97.8 | Adalimumab Thr68Cys (VH) (antibody)
